High-throughput results (PubChem BioAssay)
Rows were chosen to be rich in hits. Some 1.9% of all compounds tested hit in one or more screens of this group.
ERp5 block = inhibitors of ERp5-driven insulin aggregation, primary screen, biochemical, turbidity, absorbance 650 nm, single point; inhibition, % at 9.99 µM; Protein disulfide-isomerase A6 (Homo sapiens), Q15084; 90 min; AID 651711, 2012; 350,000 tested, 0.05% active;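 active = mean replicate inhibition above about 25%, with every replicate also reaching it, limit read from the data, passing the limit was not always enough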
FGF22 binding = binders of human FGF22 protein, primary screen, FGF22 synaptogenesis inhibitor project, biophysical, thermal shift, single point | Fibroblast growth factor 22 (Homo sapiens), Q9HCT0 | recombinant FGF22 thermal shift, SYPRO orange fluorescence; percent of sucrose octasulfate shift, DMSO zero | activity (Tm shift, normalised), % at 9.99 µM | 340,000 tested, 1.5% active | AID 651658, 2012;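 active = mean Tm shift, scaled 0 neutral to 100 positive control, at about 1.3% or above, every replicate too, limit read from the data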
ARNT TACC3 PPI = disruptors of ARNT/TACC3 protein interaction, primary screen, biochemical, AlphaScreen, single concentration; 390,000 tested, 0.66% active; AlphaScreen His-ARNT PAS-B/GST-TACC3 binding, luminescence; TACC3 fragment carries E629A point mutation; inhibition, % at 9.99 µM;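 active = mean inhibition of replicates at least 50% and at least half of replicates each reaching 50%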;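 note: 0% = complete ARNT plus TACC3 wells and 100% = ARNT alone without TACC3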
PDI inh = inhibitors of human PDI, primary screen, biochemical, turbidity, single point, plate reader; Protein disulfide-isomerase (Homo sapiens), P07237; PDI insulin aggregation turbidity, A650, 90 min; inhibition, % at 10 µM; 350,000 tested, 0.052% active;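 active = mean inhibition across replicates of 30% or more, whatever share of single replicates reach that level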
UUG fidelity = yeast start codon fidelity modulation; AID 602363; activity score, % at 18.7 µM; S. cerevisiae UUG-firefly luciferase reporter, luminescence/redox ratio; 0.13% of 350,000 active;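 active means replicate mean at a twofold rise or more, about +100% in these data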;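 further: firefly luciferase made from a UUG start codon reports start codon fidelity; reporter light over untreated wells divided by growth signal over untreated wells; some hits fall short of that in this replicate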
PglD DTNB = C. jejuni PglD acetyltransferase inhibitors, primary screen, biochemical, DTNB colorimetric, single point; UDP-N-acetylbacillosamine N-acetyltransferase PglD (Campylobacter jejuni); 360,000 tested, 0.098% active; purified PglD enzyme, DTNB colorimetric CoA detection; inhibition, % at 12.5 µM; in the data active = inhibition above about 16%, passing the limit was not always enough
An asterisk follows results filed as active; . = not tested or not shown.

Codes: A = ERp5 block; B = FGF22 binding; C = ARNT TACC3 PPI; D = PDI inh; E = UUG fidelity; F = PglD DTNB
1: CSc1ccccc1C(=O)C1CCCN(Cc2c(C)n(C)n(-c3ccccc3)c2=O)C1 (stereo not given)
  A: -42; B: 0; C: -2; D: 6; E: .; F: .

2: CSc1ccccc1C(=O)C1CCCN(Cc2cnn(-c3ccccc3)c2)C1 (stereo not given)
  A: 1; B: 43*; C: .; D: -1; E: .; F: .

3: O=C(Nc1ccc(-c2ccccc2)cc1)[C@@H]1[C@@H](CO)[C@@H]2Cn3c(cccc3=O)[C@H]1N2Cc1ccccc1
  A: -1; B: 0; C: 5; D: .; E: 12; F: -1

4: Cc1ccc(S(=O)(=O)N(C)C[C@@H]2OCCCC[C@H](C)Oc3ccc(NC(=O)Nc4ccc(F)cc4)cc3C(=O)N([C@@H](C)CO)C[C@H]2C)cc1
  A: 1; B: 0; C: 32; D: .; E: 11; F: 1

5: Cc1ccc(NC(=O)CN(C)C(=O)COc2ccc(C(=O)c3ccc(F)cc3)cc2)cc1
  A: 2; B: 44*; C: 0; D: 8; E: .; F: .

6: COc1cccc(N2CC(=O)N(c3cccc(OC)c3)CC2=O)c1
  A: -2; B: 44*; C: .; D: -1; E: .; F: .

7: O=C1NC(Cc2ccc(O)cc2)c2nc3ccccc3c(=O)n2-c2ncccc21 (stereo not given)
  A: 1; B: 0; C: .; D: 43*; E: -11; F: 0

8: Cc1cc(C)c2c(=O)n3c(nc2c1)C(Cc1ccc(O)cc1)NC(=O)c1cccnc1-3 (stereo not given)
  A: -2; B: 0; C: .; D: 44*; E: 6; F: -3

9: Cc1ccc2nc3n(c(=O)c2c1)-c1ncccc1C(=O)NC3Cc1ccc(O)cc1 (stereo not given)
  A: -6; B: 0; C: .; D: 37*; E: -14; F: -1

10: Cc1cc(C)c2c(=O)n3c(nc2c1)C(Cc1ccccc1)NC(=O)c1cccnc1-3 (stereo not given)
  A: -5; B: 0; C: .; D: -1; E: -3; F: 1

11: C/C(CC(=O)Nc1ccc(C)c(Cl)c1)=N\NC(=O)Cc1cnc(N)s1
  A: 4; B: 43*; C: 7; D: 1; E: .; F: .

12: COc1ccc(NC(=O)Nc2ccc3c(c2)CC(=O)N([C@@H](C)CO)C[C@H](C)[C@@H](CN(C)Cc2ccc(C(=O)O)cc2)O3)cc1
  A: -5; B: 0; C: -1; D: .; E: 6; F: 2

13: COc1ccc(-n2cnc3cc(C(=O)NCCN4CCOCC4)ccc32)cc1
  A: 1; B: 44*; C: .; D: -2; E: .; F: .

14: O=C(Cc1c(F)cccc1Cl)NCCN1CCOCC1
  A: 10; B: 43*; C: 2; D: 4; E: -7; F: 1

15: O=C(NCCN1CCOCC1)/C(=C\c1ccccc1Cl)NC(=O)c1ccccc1
  A: 5; B: 0; C: -1; D: 2; E: .; F: .

16: COc1ccccc1/C=C(/NC(=O)c1ccccc1)C(=O)NCCN1CCOCC1
  A: -5; B: 44*; C: -3; D: -5; E: .; F: .

17: COc1ccc(C(=O)NCCN2CCOCC2)c(OC)c1
  A: -7; B: 44*; C: -7; D: 7; E: .; F: .

18: C[C@@H]1CN([C@H](C)CO)S(=O)(=O)c2ccc(C#Cc3ccccc3F)cc2O[C@@H]1CN(C)CC1CC1
  A: -1; B: 0; C: 6; D: .; E: -2; F: 4

19: O=C(C[C@@H]1C=C[C@@H](NC(=O)c2ccncc2)[C@@H](CO)O1)Nc1ccccc1
  A: -3; B: .; C: .; D: .; E: .; F: .

20: Cc1ccccc1C(=O)NCCN1CCOCC1
  A: 4; B: 44*; C: -2; D: 3; E: .; F: .

21: COc1ccc2c3c([nH]c2c1)[C@@H](CO)N(CC1CC1)CC31CN(S(=O)(=O)c2cccc(F)c2)C1
  A: -1; B: 0; C: .; D: .; E: .; F: .

22: CCCn1c(SCCN2CCOCC2)nc2c1c(=O)n(C)c(=O)n2C
  A: -2; B: 0; C: 13; D: -2; E: -12; F: -8

23: CCCCc1nc(SCCN2CCOCC2)c2c(=O)n(C)c(=O)n(C)c2n1
  A: 4; B: 43*; C: 29; D: -16; E: .; F: .

24: O=C(Cc1ccccc1)N[C@H]1CC[C@@H](CC(=O)N2CCCCC2)O[C@@H]1CO
  A: -4; B: 0; C: .; D: .; E: -12; F: 3

25: CCNC(=O)C[C@@H]1CC[C@@H]2[C@H](COc3ccc(NC(=O)Nc4ccccc4OC)cc3C(=O)N2C)O1
  A: .; B: 0; C: -12; D: .; E: 6; F: 0

2 neighbouring entries from above, for reference:
Codes: A = ERp5 block; B = FGF22 binding; C = ARNT TACC3 PPI; D = PDI inh; E = UUG fidelity; F = PglD DTNB
1: CSc1ccccc1C(=O)C1CCCN(Cc2c(C)n(C)n(-c3ccccc3)c2=O)C1 (stereo not given)
  A: -42; B: 0; C: -2; D: 6; E: .; F: .

2: CSc1ccccc1C(=O)C1CCCN(Cc2cnn(-c3ccccc3)c2)C1 (stereo not given)
  A: 1; B: 43*; C: .; D: -1; E: .; F: .
